Assay results reported in the kinase profiling compilation of Christmann-Franck et al. (2016).
“And” between values parts separate entries of the source, which are not always exact repeats. Identical values can stand only once.

Chains of the proteins cited; added tags and fusions are not shown. Lines headed by an entry give the natural chain unless they say otherwise; changes in a name come on top.
UniProt P49761: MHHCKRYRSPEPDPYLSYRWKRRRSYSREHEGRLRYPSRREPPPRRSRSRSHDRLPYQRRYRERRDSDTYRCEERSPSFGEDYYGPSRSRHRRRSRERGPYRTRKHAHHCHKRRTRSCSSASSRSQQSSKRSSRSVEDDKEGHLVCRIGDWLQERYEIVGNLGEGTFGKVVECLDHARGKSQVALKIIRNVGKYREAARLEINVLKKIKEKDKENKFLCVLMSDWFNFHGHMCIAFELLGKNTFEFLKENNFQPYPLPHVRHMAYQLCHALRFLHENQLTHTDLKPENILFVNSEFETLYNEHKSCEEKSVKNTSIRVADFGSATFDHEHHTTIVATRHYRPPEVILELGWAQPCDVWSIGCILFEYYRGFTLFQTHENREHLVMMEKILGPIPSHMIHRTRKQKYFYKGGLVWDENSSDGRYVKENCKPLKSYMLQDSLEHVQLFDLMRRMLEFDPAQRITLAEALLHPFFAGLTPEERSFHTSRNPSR
UniProt Q16832: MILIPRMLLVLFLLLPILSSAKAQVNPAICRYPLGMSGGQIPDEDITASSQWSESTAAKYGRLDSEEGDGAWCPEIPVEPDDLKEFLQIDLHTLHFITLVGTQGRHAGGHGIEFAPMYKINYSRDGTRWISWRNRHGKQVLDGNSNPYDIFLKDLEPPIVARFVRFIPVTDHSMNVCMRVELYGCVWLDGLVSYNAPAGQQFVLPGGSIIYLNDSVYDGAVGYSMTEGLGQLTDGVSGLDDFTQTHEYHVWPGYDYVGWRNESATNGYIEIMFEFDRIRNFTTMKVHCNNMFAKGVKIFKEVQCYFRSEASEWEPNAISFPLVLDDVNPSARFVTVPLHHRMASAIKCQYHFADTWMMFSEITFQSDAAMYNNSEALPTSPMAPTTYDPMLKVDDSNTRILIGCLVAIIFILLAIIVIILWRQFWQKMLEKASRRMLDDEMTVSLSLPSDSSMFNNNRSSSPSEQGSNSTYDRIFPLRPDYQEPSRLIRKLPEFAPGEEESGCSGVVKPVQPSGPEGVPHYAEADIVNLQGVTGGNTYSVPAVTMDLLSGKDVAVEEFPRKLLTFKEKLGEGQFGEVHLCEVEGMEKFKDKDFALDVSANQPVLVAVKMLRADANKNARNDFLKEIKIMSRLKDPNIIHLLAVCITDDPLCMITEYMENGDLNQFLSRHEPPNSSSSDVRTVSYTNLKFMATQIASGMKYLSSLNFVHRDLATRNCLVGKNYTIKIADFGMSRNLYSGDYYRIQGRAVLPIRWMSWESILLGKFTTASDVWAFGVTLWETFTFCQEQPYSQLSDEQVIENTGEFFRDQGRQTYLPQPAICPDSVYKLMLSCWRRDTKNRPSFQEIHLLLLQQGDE
UniProt Q09013: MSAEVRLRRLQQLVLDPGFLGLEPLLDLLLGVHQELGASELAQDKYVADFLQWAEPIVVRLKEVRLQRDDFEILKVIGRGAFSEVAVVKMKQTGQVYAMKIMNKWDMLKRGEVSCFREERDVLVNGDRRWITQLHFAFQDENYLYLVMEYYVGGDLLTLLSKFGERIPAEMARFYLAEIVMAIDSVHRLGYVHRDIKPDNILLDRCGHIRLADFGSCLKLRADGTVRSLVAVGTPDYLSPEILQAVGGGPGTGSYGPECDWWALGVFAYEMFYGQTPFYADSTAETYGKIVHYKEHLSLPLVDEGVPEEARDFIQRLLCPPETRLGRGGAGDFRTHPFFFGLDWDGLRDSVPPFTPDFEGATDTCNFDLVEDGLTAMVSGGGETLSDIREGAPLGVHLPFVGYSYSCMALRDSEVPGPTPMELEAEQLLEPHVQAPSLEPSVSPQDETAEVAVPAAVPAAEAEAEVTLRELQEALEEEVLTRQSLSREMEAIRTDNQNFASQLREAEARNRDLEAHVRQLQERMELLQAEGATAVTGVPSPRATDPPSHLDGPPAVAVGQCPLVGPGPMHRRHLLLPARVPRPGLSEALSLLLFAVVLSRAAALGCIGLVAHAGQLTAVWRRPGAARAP
UniProt O43781: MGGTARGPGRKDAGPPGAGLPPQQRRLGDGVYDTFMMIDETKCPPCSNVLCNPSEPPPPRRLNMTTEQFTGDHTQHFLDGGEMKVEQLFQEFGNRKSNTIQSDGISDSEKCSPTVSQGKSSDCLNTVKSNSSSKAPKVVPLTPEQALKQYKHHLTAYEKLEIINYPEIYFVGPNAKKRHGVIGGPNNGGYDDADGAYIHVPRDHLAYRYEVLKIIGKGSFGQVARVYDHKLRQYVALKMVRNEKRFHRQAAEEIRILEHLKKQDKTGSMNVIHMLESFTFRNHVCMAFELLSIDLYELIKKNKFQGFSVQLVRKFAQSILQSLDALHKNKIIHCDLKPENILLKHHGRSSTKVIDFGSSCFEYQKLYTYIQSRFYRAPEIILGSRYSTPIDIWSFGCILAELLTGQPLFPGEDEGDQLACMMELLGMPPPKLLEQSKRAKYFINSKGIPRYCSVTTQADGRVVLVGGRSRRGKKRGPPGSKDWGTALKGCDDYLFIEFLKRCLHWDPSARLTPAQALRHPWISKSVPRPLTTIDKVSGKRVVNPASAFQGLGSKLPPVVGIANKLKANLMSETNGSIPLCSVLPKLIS
UniProt Q8WTQ7: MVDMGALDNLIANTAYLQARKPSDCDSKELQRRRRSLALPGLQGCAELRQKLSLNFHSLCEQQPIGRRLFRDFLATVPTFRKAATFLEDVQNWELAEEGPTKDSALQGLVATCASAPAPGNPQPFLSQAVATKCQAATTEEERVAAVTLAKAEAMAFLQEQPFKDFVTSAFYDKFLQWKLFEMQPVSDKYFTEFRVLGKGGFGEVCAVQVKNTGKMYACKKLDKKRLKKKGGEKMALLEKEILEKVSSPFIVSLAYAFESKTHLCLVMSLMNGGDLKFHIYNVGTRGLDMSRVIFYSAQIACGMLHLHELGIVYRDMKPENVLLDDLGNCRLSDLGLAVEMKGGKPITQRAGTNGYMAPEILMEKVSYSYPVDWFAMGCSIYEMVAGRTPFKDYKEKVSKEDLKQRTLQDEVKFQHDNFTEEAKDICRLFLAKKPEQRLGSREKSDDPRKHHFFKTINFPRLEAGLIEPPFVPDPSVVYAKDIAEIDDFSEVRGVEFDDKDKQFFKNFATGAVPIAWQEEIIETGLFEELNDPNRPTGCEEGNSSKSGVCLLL
UniProt O60674: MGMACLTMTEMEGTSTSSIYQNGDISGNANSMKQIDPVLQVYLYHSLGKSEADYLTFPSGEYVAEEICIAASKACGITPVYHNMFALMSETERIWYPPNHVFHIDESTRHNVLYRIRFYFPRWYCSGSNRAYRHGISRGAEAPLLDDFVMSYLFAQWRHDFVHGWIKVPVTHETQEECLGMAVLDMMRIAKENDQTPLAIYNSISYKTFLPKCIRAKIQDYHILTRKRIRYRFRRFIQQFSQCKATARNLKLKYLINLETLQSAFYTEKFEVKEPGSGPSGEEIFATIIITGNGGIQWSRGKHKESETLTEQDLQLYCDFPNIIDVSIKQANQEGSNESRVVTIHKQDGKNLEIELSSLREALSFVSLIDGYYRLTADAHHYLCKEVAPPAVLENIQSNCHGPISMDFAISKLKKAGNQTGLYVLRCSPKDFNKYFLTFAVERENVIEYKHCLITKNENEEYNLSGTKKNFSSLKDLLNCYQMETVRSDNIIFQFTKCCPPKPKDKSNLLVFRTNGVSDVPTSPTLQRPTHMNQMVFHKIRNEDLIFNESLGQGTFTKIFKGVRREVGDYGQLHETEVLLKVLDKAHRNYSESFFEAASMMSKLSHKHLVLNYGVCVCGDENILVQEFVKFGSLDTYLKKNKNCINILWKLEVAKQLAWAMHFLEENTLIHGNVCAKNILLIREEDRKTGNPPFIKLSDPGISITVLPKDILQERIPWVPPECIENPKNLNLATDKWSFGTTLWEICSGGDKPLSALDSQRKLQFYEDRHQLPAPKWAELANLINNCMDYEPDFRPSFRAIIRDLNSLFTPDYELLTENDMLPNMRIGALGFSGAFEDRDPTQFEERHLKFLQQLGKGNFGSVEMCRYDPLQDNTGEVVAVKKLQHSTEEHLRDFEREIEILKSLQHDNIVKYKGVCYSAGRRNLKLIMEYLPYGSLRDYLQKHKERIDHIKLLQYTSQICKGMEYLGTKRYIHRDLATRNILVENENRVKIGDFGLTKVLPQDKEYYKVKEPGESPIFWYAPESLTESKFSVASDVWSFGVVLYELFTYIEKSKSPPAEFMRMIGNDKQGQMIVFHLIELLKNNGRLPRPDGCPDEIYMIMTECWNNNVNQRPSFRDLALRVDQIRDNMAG
UniProt Q96L34: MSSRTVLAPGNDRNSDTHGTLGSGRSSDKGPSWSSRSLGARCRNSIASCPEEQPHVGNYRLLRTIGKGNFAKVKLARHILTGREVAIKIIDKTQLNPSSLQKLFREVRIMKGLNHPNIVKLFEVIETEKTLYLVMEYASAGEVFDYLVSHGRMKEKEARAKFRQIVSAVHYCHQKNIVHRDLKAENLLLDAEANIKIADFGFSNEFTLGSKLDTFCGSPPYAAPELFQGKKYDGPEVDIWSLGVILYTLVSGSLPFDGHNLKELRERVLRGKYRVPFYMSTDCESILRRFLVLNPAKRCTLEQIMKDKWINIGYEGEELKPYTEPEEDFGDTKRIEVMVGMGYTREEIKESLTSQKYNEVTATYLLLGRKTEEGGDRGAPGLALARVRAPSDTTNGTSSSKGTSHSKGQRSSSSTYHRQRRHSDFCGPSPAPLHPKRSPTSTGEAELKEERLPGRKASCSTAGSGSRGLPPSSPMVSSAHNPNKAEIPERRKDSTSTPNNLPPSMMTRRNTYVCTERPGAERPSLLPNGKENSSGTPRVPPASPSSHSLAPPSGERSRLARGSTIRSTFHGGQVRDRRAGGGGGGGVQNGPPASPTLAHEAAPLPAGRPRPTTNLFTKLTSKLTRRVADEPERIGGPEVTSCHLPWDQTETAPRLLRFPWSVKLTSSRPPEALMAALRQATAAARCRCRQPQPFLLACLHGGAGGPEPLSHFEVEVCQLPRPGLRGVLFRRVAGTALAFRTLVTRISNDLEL
UniProt Q13464: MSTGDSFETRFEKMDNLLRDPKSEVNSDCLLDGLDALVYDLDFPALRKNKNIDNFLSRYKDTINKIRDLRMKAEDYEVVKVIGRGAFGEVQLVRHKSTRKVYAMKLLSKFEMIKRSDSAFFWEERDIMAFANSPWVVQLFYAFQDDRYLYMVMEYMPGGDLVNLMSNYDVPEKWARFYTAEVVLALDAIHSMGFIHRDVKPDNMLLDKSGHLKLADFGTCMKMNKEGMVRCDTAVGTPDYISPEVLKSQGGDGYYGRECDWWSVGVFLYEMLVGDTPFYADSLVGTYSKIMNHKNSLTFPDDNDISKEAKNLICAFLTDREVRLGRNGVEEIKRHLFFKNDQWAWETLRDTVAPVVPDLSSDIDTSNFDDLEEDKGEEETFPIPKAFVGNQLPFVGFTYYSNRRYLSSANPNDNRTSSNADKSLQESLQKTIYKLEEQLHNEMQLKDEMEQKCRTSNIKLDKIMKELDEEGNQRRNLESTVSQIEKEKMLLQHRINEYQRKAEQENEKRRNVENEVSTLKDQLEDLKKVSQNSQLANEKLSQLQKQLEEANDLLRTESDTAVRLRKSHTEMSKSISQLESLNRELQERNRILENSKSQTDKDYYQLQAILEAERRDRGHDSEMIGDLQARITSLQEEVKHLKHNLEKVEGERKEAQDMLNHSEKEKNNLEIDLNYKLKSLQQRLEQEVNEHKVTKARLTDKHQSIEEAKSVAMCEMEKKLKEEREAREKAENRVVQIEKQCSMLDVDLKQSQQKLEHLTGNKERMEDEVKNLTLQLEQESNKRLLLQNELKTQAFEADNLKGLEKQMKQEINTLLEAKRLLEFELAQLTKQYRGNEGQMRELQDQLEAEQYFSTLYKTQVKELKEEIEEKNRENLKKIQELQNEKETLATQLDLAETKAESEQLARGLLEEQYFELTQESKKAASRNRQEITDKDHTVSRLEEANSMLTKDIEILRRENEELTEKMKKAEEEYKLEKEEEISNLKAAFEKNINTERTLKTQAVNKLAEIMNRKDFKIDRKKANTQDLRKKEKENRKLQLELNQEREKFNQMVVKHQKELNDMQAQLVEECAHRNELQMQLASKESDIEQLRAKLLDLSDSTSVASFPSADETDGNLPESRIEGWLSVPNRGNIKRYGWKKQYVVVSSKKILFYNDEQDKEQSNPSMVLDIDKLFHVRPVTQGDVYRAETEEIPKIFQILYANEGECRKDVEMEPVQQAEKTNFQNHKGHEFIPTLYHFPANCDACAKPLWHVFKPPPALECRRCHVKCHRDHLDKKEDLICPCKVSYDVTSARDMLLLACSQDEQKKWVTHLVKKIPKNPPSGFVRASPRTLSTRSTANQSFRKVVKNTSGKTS

Assays:
Test in all cases: radiometric filter-binding kinase assay, Kinase HotSpot
Conditions in all cases: compound 0.5 µM; ATP 10 µM
AKT3 (human) = AKT3 (human) (UniProt Q9Y243)
BRAF (human) = BRAF (human) (UniProt P15056)
CAMK1G (human) = CAMK1G (human) (UniProt Q96NX5)
CDC42BPA (human) = CDC42BPA (human) (UniProt Q5VT25)
CHUK (human) = CHUK (human) (UniProt O15111)
CLK3 (human) = CLK3 (human) (UniProt P49761)
DDR2 (human) = DDR2 (human) (UniProt Q16832)
DMPK (human) = DMPK (human) (UniProt Q09013)
DSTYK (human) = DSTYK (human) (UniProt Q6XUX3)
DYRK2 (human) = DYRK2 (human) (UniProt Q92630)
DYRK3 (human) = DYRK3 (human) (UniProt O43781)
ERBB2 (human) = ERBB2 (human) (UniProt P04626)
FLT1 (human) = FLT1 (human) (UniProt P17948)
GRK7 (human) = GRK7 (human) (UniProt Q8WTQ7)
JAK2 JH1 JH2 (human) = JAK2 JH1 JH2 (human) (UniProt O60674)
LIMK1 (human) = LIMK1 (human) (UniProt P53667)
MAP3K10 (human) = MAP3K10 (human) (UniProt Q02779)
MAPK13 (human) = MAPK13 (human) (UniProt O15264)
MAPK3 (human) = MAPK3 (human) (UniProt P27361)
MARK4 (human) = MARK4 (human) (UniProt Q96L34)
NTRK2 (human) = NTRK2 (human) (UniProt Q16620)
NTRK3 (human) = NTRK3 (human) (UniProt Q16288)
PASK (human) = PASK (human) (UniProt Q96RG2)
PDGFRA (human) = PDGFRA (human) (UniProt P16234)
PHKG1 (human) = PHKG1 (human) (UniProt Q16816)
PLK3 (human) = PLK3 (human) (UniProt Q9H4B4)
PRKCI (human) = PRKCI (human) (UniProt P41743)
PRKG1 (human) = PRKG1 (human) (UniProt Q13976)
RAF1 (human) = RAF1 (human) (UniProt P04049)
ROCK1 (human) = ROCK1 (human) (UniProt Q13464)
ROS1 (human) = ROS1 (human) (UniProt P08922)
RPS6KA1 KD1 KD2 (human) = RPS6KA1 KD1 KD2 (human) (UniProt Q15418)
RPS6KA3 KD1 KD2 (human) = RPS6KA3 KD1 KD2 (human) (UniProt P51812)
SRPK2 (human) = SRPK2 (human) (UniProt P78362)
TAOK3 (human) = TAOK3 (human) (UniProt Q9H2K8)
TBK1 (human) = TBK1 (human) (UniProt Q9UHD2)
TEC (human) = TEC (human) (UniProt P42680)
[1] = biological target: TYK2 JH1 catalytic (human) (UniProt P29597)
ULK2 (human) = ULK2 (human) (UniProt Q8IYT8)
ULK3 (human) = ULK3 (human) (UniProt Q6PHR2)
VRK1 (human) = VRK1 (human) (UniProt Q99986)
WNK2 (human) = WNK2 (human) (UniProt Q9Y3S1)

Compound `O=C1Nc2ccc3ncsc3c2/C1=C/c1c[nH]cn1` has a residual activity (AKT3 (human)) of 90.2%, a residual activity (BRAF (human)) of 100% and a residual activity (CAMK1G (human)) of 102%. For the same compound, the residual activity (CDC42BPA (human)) was 94.2%, the residual activity (CHUK (human)) was 53.2% and the residual activity (CLK3 (human)) was 65.5%. It also gave a residual activity (DDR2 (human)) of 101%, a residual activity (DMPK (human)) of 95.8% and a residual activity (DSTYK (human)) of 97%. For the same compound, the residual activity (DYRK2 (human)) was 12.1%, the residual activity (DYRK3 (human)) was 39.2% and the residual activity (ERBB2 (human)) was 99.8%. For the same compound, the residual activity (FLT1 (human)) was 40.1%, the residual activity (GRK7 (human)) was 81.3% and the residual activity (JAK2 JH1 JH2 (human)) was 69.9%. For the same compound, the residual activity (LIMK1 (human)) was 61.3%, the residual activity (MAP3K10 (human)) was 65.4% and the residual activity (MAPK13 (human)) was 90.4%. For the same compound, the residual activity (MAPK3 (human)) was 11.6%, the residual activity (MARK4 (human)) was 12.8% and the residual activity (NTRK2 (human)) was 17.4%. It also gave a residual activity (NTRK3 (human)) of 6.55%, a residual activity (PASK (human)) of 40.9% and a residual activity (PDGFRA (human)) of 57.7%. It also gave a residual activity (PHKG1 (human)) of 37.2%, a residual activity (PLK3 (human)) of 86.7% and a residual activity (PRKCI (human)) of 80.3%. The residual activity (PRKG1 (human)) was 17.5% and 20.3%, the residual activity (RAF1 (human)) was 104% and the residual activity (ROCK1 (human)) was 26%. For the same compound, the residual activity (ROS1 (human)) was 73.6%, the residual activity (RPS6KA1 KD1 KD2 (human)) was 20.4% and the residual activity (RPS6KA3 KD1 KD2 (human)) was 28%. It also gave a residual activity (SRPK2 (human)) of 97.8%, a residual activity (TAOK3 (human)) of 18.6% and a residual activity (TBK1 (human)) of 18.8%. The residual activity (TEC (human)) was 116%, the residual activity [1] was 12.3% and the residual activity (ULK2 (human)) was 51.5%. It also gave a residual activity (ULK3 (human)) of 57.9%, a residual activity (VRK1 (human)) of 69.1% and a residual activity (WNK2 (human)) of 120%.
